Measurements reported in patent US11197906B2, “Methods of lowering blink reflex for the treatment of dry eye disease” (Tufts Medical Center, priority 2016, dated 2021).

Molecular target: T1, mouse CMKLR1 (Mus musculus, UniProt P97468)
T1 construct: expressed in transfected cells; host or cells: HEK293
T1 sequence (P97468 1-371): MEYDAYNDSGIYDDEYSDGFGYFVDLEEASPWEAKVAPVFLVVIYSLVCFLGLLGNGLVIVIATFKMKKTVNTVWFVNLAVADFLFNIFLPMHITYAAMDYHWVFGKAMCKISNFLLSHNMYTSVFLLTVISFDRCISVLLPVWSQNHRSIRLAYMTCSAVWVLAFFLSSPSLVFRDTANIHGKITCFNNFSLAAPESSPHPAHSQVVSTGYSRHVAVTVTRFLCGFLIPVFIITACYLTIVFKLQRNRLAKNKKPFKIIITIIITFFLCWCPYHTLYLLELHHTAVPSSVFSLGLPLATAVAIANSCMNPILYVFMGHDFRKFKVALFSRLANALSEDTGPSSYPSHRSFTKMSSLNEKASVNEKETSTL
Test: Luciferase assay in transfected HEK293 cells, mouse CMKLR1
Type: cell-based
Conditions: membrane tethered construct, FIG. 4B
Protocol: FIG. 1 is a schematic depicting the luciferase assay. HEK293 cells were transfected for 24 hours with cDNAs encoding: a) GPCR, b) a tethered ligand (where applicable), c) a luciferase reporter gene, and d) β-galactosidase (transfection control). Luciferase activity was measured using Steadylite reagent. Luciferase data were normalized to β-galactosidase values.
FIGS. 4A-4B are graphs showing that membrane tethered chemerin activates CMKLR1.
FIGS. 5A-5D are graphs showing the luciferase activity of l-Chem149-157 and s-Chem149-157.

activation of mouse CMKLR1: activate
Substance: tChem149-157: membrane tethered chemerin construct encoding truncated chemerin
